Source: publication PMC2637922, “Active-Site Inhibitors of mTOR Target Rapamycin-Resistant Outputs of mTORC1 and mTORC2” (PLoS Biology, 2009)

System: Akt phosphorylation (S473, T308) in L6 myotubes

| SMILES | phosphorylation of both Akt sites (S473, T308) (L6 myotubes, insulin, in-cell Western) | Akt phosphorylation at T308 (L6 myotubes, insulin, significantly higher doses required than for S473) | insulin-stimulated phosphorylation of Akt at S473 (serum-starved L6 myotubes) |
| --- | --- | --- | --- |
| COc1ccc2c(c1OC)N=C(NC(=O)c1cccnc1)N1CCN=C21 [PIK-90] | inhibited the phosphorylation of both Akt sites equipotently |  |  |
| CC(C)n1nc(-c2cccc(C(=O)NC3=NCCS3)c2)c2c(N)ncnc21 [PP30] |  | loss of Akt phosphorylation at T308 | inhibited |
